We go through two substances from US20080019931A1, “Method and composition for producing enhanced fingernails” (PROSTRONG, INC, priority 2004, published 2008).

The nature of the data set: Solubility in water. Type of data set: physicochemical.

As for Calcium Fluorophosphate, the solubility in water result is given as “soluble in water”.
Take Calcium Phosphate Monobasic: the solubility in water result is listed as “soluble in water”.
